In patent US8709811B2, “Materials and methods for synthesis of a flavor and aroma volatile in plants” (University of Florida Research Foundation, Inc., priority 2003, dated 2014):

System: NADPH
Experiment: purified protein, by the assay type
Conditions: other: substrate specificity of LePEDH, His tag, E. coli BL21-AI

**Q.** Which Km does the source give for “LePEDH (tomato 2-phenylethanol dehydrogenase, full-length cLET2M9) (Solanum lycopersicum)” here?
**A.** 54.2 µM
